Values of other authors, collected in patent US12440567B2, “Aqueous antibody formulation stabilized by antioxidants for parenteral administration” (AMGEN INC., priority 2007, dated 2025).

Details: cited from earlier work

In the case of catechin, the solubility is listed as “limited solubility”.
